Experimental data published in ChEMBL document CHEMBL1154599 (J Med Chem, 2009).

Species: Rattus norvegicus
Test: Selectivity index, ratio of IC50 for rat MAO-A to IC50 for rat MAO-B
How it was run: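 Ratio of IC50 values from rat brain mitochondrial radioenzymatic assays: MAO-A with [14C]5-HT 5 μM, 30 min, and MAO-B with [14C]PEA 0.5 μM, 10 min. Both after 30 min preincubation with compound at 37 °C.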

Ratio IC50: 750
SMILES: CNCc1cc(=O)oc2cc(OCc3cccc(F)c3)ccc12
